Measurements reported in patent US20220218837A1, “DRUG CONJUGATE” (priority 2018, published 2022).

Assays:
[1] = system: HSP27 mRNA in A2058 cells (EGFR-); assay: HSP27 gene silencing in A2058 cells; format: cell-based, human; details: for IC50: A2058 (EGFR-), substance alone, no partner
Method: Cells were seeded in DMEM (PAN-Biotech GmbH) supplemented with 10% fetal bovine serum (PAN-Biotech GmbH) and 1% penicillin/streptomycin (PAN-Biotech GmbH), in a 96 well plate at 5,000 c/w in 100 μL/well and incubated overnight at 37° C. and 5% CO2. The next day samples were prepared in DMEM and cells were treated.
RNA isolation and Qper analysis was performed according to standard procedures and protocols.

HSP27 mRNA = assay: A431 xenograph 'nude' mouse tumor model, HSP27 gene expression in tumors; format: in vivo; details: 1 dosing of 30 mg/kg; 72h; compared to vehicle control
Method: This scaffold comprising conjugate was tested in a A431 xenograph ‘nude’ mouse tumor model for EGFR-mediated tumor targeted gene silencing activity. Dosings started at day 12 when tumors reached ˜170 mm^3 in size and tumor samples were collected at 72h after the first dosing and analysed for HSP27 gene expression compared to cellular control mRNA expression (reference genes).
Dosing started at day 12 when tumors reached ˜150 mm^3 in size and HSP27 mRNA expression was determined. For this, tumor samples were collected at 72h after the first dosing and analysed for HSP27 gene expression levels compared to cellular control mRNA expression levels (reference genes). […] Dosings started at day 12 when tumors reached ˜150 mm^3 in size and HSP27 mRNA expression was determined. For this, tumor samples were collected at 72h after the first dosing and analysed for HSP27 gene expression levels compared to cellular control mRNA expression levels (reference genes).
Dosings started at day 12 when tumors reached ˜150 mm^3 in size and tumor samples were collected at 72h after the first dosing and analysed for HSP27 gene expression compared to control gene mRNA expression levels (reference genes). […] Compared to the vehicle control tumors, a reduction of 40% HSP27 gene silencing was observed.
Dosing started at day 12 when tumors reached ˜150 mm^3 in size and HSP27 mRNA expression was determined. […]

Substance | IC50 [1] [nM] | IC50 HSP27 gene silencing ([1]; A2058, titrated + fixed 100 nM cetuximab-(Lys-L-HSP27BNA)^4) | reduction in HSP27 gene expression in the tumors (HSP27 mRNA) [%]
Cetuximab-(Cys-L-SO1861)^3,8(Lys-L-HSP27BNA)^3,8: SO1861 (labile) and HSP27BNA oligo (labile) conjugated to cetuximab | > 100 |  | 
cetuximab-(Cys-L-SO1861)^3,8: SO1861-EMCH conjugated via cysteine residues to cetuximab |  | no gene silencing activity was observed | 
cetuximab-Cys-(SO1861-L-trifunctional linker-L-HSP27BNA)^3′^7: trifunctional linker carrying SO1861 and HSP27BNA (labile), conjugated via maleimide to cysteines of cetuximab | 100 |  | 25
